# Assay results published in ChEMBL document CHEMBL4673253, “Discovery of EST73502, a Dual μ-Opioid Receptor Agonist and σ Receptor Antagonist Clinical Candidate for the Treatment of Pain” (J Med Chem, 2020).
# Chains of the proteins cited; added tags and fusions are not shown.
# UniProt Q99720, whole entry, looked up: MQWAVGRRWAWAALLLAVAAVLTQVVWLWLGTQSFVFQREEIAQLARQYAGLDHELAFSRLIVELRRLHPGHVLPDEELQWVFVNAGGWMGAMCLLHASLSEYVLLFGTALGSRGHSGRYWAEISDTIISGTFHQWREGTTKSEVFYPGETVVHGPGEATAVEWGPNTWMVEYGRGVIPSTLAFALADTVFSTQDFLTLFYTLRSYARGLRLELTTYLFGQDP
# Target: Sigma non-opioid intracellular receptor 1 (Homo sapiens, UniProt Q99720)
# Conditions: hek293
compound,measurement,value
O=C1N(c2cccnc2C(F)(F)F)CC2(CCN(CCc3ccccc3F)CC2)OC12CC2,Ki,58 nM
